Data published in patent US20130211351A1, “Pharmaceutical patch for transdermal administration of (1r,4r)-6'-fluoro-N,N-dimethyl-4-phenyl-4',9'-dihydro-3'H-spiro[cyclohexane-1,1'-pyrano[3,4-b]indol]-4-amine” (published 2013).
Read-outs that look alike come from different tables or passages of the source.

Assays:
[1] = plasma pharmacokinetics and bioavailability in female minipigs; conditions: female minipig, i.v. reference, 648 μg/animal
[2] = intravenous pharmacokinetic reference in Sprague-Dawley rat; conditions: API free base i.v., 32 μg/animal (160 μg/kg)
[3] = solubility of API free base in liquid permeation enhancer substances
[4] = plasma pharmacokinetics, bioavailability and flux in male minipigs
[5] = partition coefficient in the system octanol/water (log P)
[6] = study 2, PEG 400, 3000 μg/mL, 60%, 300 μg/animal, dermal
[7] = study 3, PEG 400, 600 μg/mL, 12%, 60 μg/animal, dermal
[8] = study 4, PEG 400 in Finn chamber, 1000 μg/mL, 180 μL, 180 μg/animal
[9] = study 4, SEDDS in Finn chamber, 1000 μg/mL, 180 μL, 180 μg/animal
[10] = male minipig, i.v. reference, 564 μg/animal
[11] = study 1, Solution 12A, 52 μg/kg (8.3 μg/animal), dermal
[12] = study 1, Solution 12A, 102 μg/kg (16 μg/animal), dermal
[13] = study 1, Solution 12A, 188 μg/kg (30 μg/animal), dermal
[14] = study 2, PEG 400, 750 μg/mL, 60%, 60 μg/animal, dermal

For CN(C)[C@]1(c2ccccc2)CC[C@]2(CC1)OCCc1c3cc(F)ccc3[nH]c12, the AUC0-t [1] was 11.4 ± 0.82 ng·h/mL, the Cmax [1] was 6.97 ± 1.17 ng/mL and the tlast [1] was 36 to 48 h. The AUC0-t [2] was 16.1 ± 1.91 ng·h/mL, the Cmax [2] was 11.7 ± 0.940 ng/mL and the tlast [2] was 12 to 24 h. For the same molecule, the AUC0-t ([2]; listed as reference) was 16.1 ± 1.91 (12%) h · ng/mL, the Cmax ([2]; listed as reference) was 11.7 ± 0.940 (79%) ng/mL and the flux (PEG 400, 600 μg/mL, 12%, 60 μg/animal, size ~12 cm^2) was 148 ng/cm^2/h. It also gave a flux (PEG 400, 3000 μg/mL, 60%, 300 μg/animal, size ~12 cm^2) of 852 ng/cm^2/h, a flux (PEG 400 in Finn chamber, 1000 μg/mL, 180 μg/animal, size ~3 cm^2) of 71 ng/cm^2/h and a flux (SEDDS in Finn chamber, 1000 μg/mL, 180 μg/animal, size ~3 cm^2) of 87 ng/cm^2/h. It also gave an AUC0-t [6] of 128 ± 26.8 ng·h/mL, a Cmax [6] of 8.51 ± 5.17 ng/mL and a tlast [6] of 48.25 h. For the same molecule, the “F [T/R] (absolute bioavailability)” value (study 2, PEG 400, 3000 μg/mL, 60%, 300 μg/animal, dermal vs. i.v.) was 82%, the AUC0-t [7] was 22.3 ± 11.8 ng·h/mL and the Cmax [7] was 1.88 ± 1.33 ng/mL. The tlast [7] was 34 to 51.25 h, the “F [T/R] (absolute bioavailability)” value (study 3, PEG 400, 600 μg/mL, 12%, 60 μg/animal, dermal vs. i.v.) was 71% and the Cmax (study 4, PEG 400 in Finn chamber (~3 cm^2), 1000 μg/mL, 180 μL, 180 μg/animal) was 0.208 ± 0.129 ng/mL. The “F [T/R] (absolute bioavailability)” value (study 4, PEG 400 in Finn chamber, 1000 μg/mL, 180 μg/animal, vs. i.v.) was 2.8%, the AUC0-t [8] was 2.66 ± 0.654 ng·h/mL and the tlast [8] was 51.25 h. The Cmax (study 4, SEDDS in Finn chamber (~3 cm^2), 1000 μg/mL, 180 μL, 180 μg/animal) was 0.171 ± 0.020 ng/mL, the AUC0-t [9] was 3.26 ± 1.01 ng·h/mL and the tlast [9] was 51.25 h. The “solubility of API free base” value ([3]; in 1-Dodecanol) was 1300 µg/mL, the “solubility of API free base” value ([3]; in Benzyl alcohol) was 5300 µg/mL and the “solubility of API free base” value ([3]; in Caprylic acid) was 1200 µg/mL. The “solubility of API free base” value ([3]; in Dibutylene sebacate) was 1500 µg/mL, the “solubility of API free base” value ([3]; in Diethylene glycol monoethyl ether (Transcutol P)) was 6300 µg/mL and the “solubility of API free base” value ([3]; in Ethyl oleate) was 500 µg/mL. For the same molecule, the “solubility of API free base” value ([3]; in Glycerol) was 700 µg/mL, the “solubility of API free base” value ([3]; in Isopropyl myristate) was 700 µg/mL and the “solubility of API free base” value ([3]; in Isopropyl palmitate) was 500 µg/mL. For the same molecule, the “solubility of API free base” value ([3]; in Laurocapram (Azone ®)) was 20000 µg/mL, the “solubility of API free base” value ([3]; in Lauryl lactate) was 2600 µg/mL and the “solubility of API free base” value ([3]; in Levulinic acid) was 11700 µg/mL. The “solubility of API free base” value ([3]; in Oleyl oleate) was 1400 µg/mL, the “solubility of API free base” value ([3]; in Polyethylene glycol 400) was 3900 µg/mL and the “solubility of API free base” value ([3]; in Polysorbate 80) was 800 µg/mL. The “solubility of API free base” value ([3]; in Propylene glycol monolaurate) was 1800 µg/mL, the “solubility of API free base” value ([3]; in Triacetine) was 600 µg/mL and the AUC ([4]; intravenous 40 μg/kg (564 μg/animal) to male pigs) was 12.3 ng·h/mL. It also gave an AUC0-t [4, 10] of 11.9 ± 1.33 ng·h/mL, a Cmax [4, 10] of 4.86 ± 1.47 ng/mL and a tlast [4, 10] of 36 to 48 h. The partition coefficient (log P) [5] was 5.3.
For “(1r,4r)-6′-fluoro-N,N-dimethyl-4-phenyl-4′,9′-dihydro-3′H-spiro[cyclohexane-1,1′-pyrano[3,4-b]indol]-4-amine”, the flux (PEG 400, 750 μg/mL, 60%, 60 μg/animal, size ~12 cm^2) was 66 ng/cm^2/h, the “bioavailability of hemicitrate, fold lower compared to the API free base in PEG400” value (PEG400, hairless rats) was “approximately 2.5 fold” and the flux (Solution 12A, 52 μg/kg (8.3 μg/animal), size ~12 cm^2) was 28 ng/cm^2/h. The flux (Solution 12A, 102 μg/kg (16 μg/animal), size ~12 cm^2, based on load in solution) was 42 ng/cm^2/h, the flux (Solution 12A, 188 μg/kg (30 μg/animal), size ~12 cm^2) was 103 ng/cm^2/h and the AUC0-t [11] was 4.28 ± 1.09 ng·h/mL. For the same molecule, the Cmax [11] was 0.240 ± 0.080 ng/mL, the tlast [11] was 34 h and the “F [T/R] (absolute bioavailability)” value (study 1, Solution 12A, 52 μg/kg (8.3 μg/animal), dermal vs. i.v.) was 99%. The AUC0-t [12] was 6.33 ± 2.30 ng·h/mL, the tlast [12] was 30 to 34 h and the “F [T/R] (absolute bioavailability)” value (study 1, Solution 12A, 102 μg/kg (16 μg/animal), dermal vs. i.v.) was 76%. For the same molecule, the AUC0-t [13] was 15.5 ± 7.12 ng·h/mL, the Cmax [13] was 1.48 ± 1.26 ng/mL and the tlast [13] was 30 to 34 h. The “F [T/R] (absolute bioavailability)” value (study 1, Solution 12A, 188 μg/kg (30 μg/animal), dermal vs. i.v.) was 99%, the Cmax (study 2, PEG 400 (Solution 12B), 750 μg/mL, 60%, 60 μg/animal, dermal) was 0.47 ± 0.12 ng/mL and the AUC0-t [14] was 9.88 ± 1.73 ng·h/mL. For the same molecule, the tlast [14] was 34 to 48.25 h and the “F [T/R] (absolute bioavailability)” value (study 2, PEG 400, 750 μg/mL, 60%, 60 μg/animal, dermal vs. i.v.) was 32%.
